Laboratory results as given in US20120207676.

Sequences of proteins named here, by UniProt entry; tags and fusion partners are left off.
Neurotensin receptor NTS1 (HT29 cells/membranes) (human), P30989, UniProt P30989, whole entry: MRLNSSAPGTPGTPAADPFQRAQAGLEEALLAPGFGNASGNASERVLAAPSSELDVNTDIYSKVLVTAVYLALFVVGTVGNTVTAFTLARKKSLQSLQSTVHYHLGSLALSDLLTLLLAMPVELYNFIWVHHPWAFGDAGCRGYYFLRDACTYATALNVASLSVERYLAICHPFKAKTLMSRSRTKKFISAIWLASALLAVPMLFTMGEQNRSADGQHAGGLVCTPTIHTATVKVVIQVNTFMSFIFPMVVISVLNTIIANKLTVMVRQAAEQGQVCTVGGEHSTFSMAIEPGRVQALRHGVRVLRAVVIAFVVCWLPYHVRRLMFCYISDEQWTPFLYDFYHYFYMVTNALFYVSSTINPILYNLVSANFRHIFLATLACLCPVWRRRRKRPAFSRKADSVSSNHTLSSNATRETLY

Key:
[1] = biological target: T1, Neurotensin receptor NTS1 (HT29 cells/membranes) (human), P30989; assay: competition, HT29 cells; conditions: modification not given
[2] = biological target: T1, Neurotensin receptor NTS1 (HT29 …); assay: competition, HT29 membranes; conditions: modification not given

Binder: ELYENKPRRPYIL [[Lys6(DTPA(In))]-NT]
- IC50 [1]: 17.3 nM
- Ki [2]: 1.77 nM
